Laboratory results from PMC5260423 (Journal of Veterinary Internal Medicine, 2016).

Assay type: in vivo, cat
Conditions: mean ± SEM; eight healthy cats

Insulin aspart
duration of action, IM: 176 ± 19.8 min | duration of action, SC: 154 ± 14.8 min | time to onset of action, IM: 13.75 ± 3.1 min | time to onset of action, SC: 11.12 ± 0.97 min
